Experimental melting point values from OPERA 2.9

Data: OPERA 2.9 data sets, kmansouri/OPERA on GitHub.

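These are experimental values that the OPERA curators gathered from public databases to train and test their QSAR models. A listed value is a point estimate from one report or more. How each value was measured is not recorded, so precision varies. The measured form (salt, isomer or mixture) is not always the one drawn. Some entries may be limits or estimates that an upstream database listed as plain numbers.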

The melting point is given in degrees Celsius. "–" marks a cell with nothing listed here. The databases behind each value are named after "via".

| compound | name | MP (°C) | via |
|---|---|---|---|
| Cn1c(=O)[nH][nH]c1=S | 4-Methyl-5-sulfanylidene-1,2,4-triazolidin-3-one | 217 | OCHEM |
| Cc1c(C)c(-c2ccc(N)cc2)c(C)c(C)c1N | 2,3,5,6-Tetramethyl[1,1'-biphenyl]-4,4'-diamine | 198 | OCHEM |
| Nc1ccc(-c2nc3cc(N)ccc3[nH]2)cc1 | 2-(4-Aminophenyl)-1H-benzimidazol-2-amine | 235 | OCHEM |
| O=C(O)c1ccc(F)cc1S | 4-Fluoro-2-sulfanylbenzoic acid | 172 | OCHEM |
| Cc1cccc(C(=O)N(NC(=O)c2ccccc2)C(C)(C)C)c1C | N'-Benzoyl-N-tert-butyl-2,3-dimethylbenzohydrazide | 204 | OCHEM |
| COc1ccc(C(=O)NC(=O)CCl)cc1 | N-(2-Chloro-acetyl)-4-methoxy-benzamide | 161 | OCHEM |
| CCn1cc(C=O)c2ccccc21 | 1-Ethyl-1H-indole-3-carbaldehyde | 105 | OCHEM |
| COc1cc(NC(=O)CCl)cc(OC)c1OC | 2-chloro-N-(3,4,5-trimethoxyphenyl)acetamide | 105 | OCHEM |
| Cc1ccc(C(N)=O)c(O)c1 | 4-Methylsalicylamide | 183 | OCHEM, eChemPortal |
| CCCCCCCCCCCCCCCCCCCCCCN(C)C | 1-Docosanamine, N,N-dimethyl- | 40.8 | eChemPortal |
| CC(=O)Nc1sc2c(c1C(=O)O)CCCC2 | – | 211 | OCHEM |
| Nc1c(I)c(C(=O)O)c(I)c(C(=O)NCC(O)CO)c1I (stereo not given) | AGN-PC-00GZVS | 163.7 | eChemPortal |
| O=C(O)c1ccc(N2C(=O)C=CC2=O)cc1 | 4-(2,5-Dihydro-2,5-dioxo-1H-pyrrol-1-yl)benzoic acid | 230 | OCHEM |
| CNC(=O)c1cccc(N)c1C | 3-Amino-N,2-dimethylbenzamide | 179 | OCHEM |
| Cc1sc(N)nc1-c1ccc(F)cc1 | 4-(4-Fluorophenyl)-5-methyl-1,3-thiazol-2-amine | 123 | OCHEM |
| O=C(O)C1(c2cccc(Cl)c2)CC1 | 1-(3-Chlorophenyl)cyclopropane-1-carboxylic acid | 136 | OCHEM |
| CNS(=O)(=O)c1ccc(C(=O)O)cc1 | 4-[(methylamino)sulfonyl]benzoic acid | 248 | OCHEM |
| Cc1cc(/N=N/c2c(S(=O)(=O)[O-])cc3cc(Nc4ccccc4)ccc3c2[O-])c([O-])cc1/N=N/c1cc(S(=O)(=O)[O-])c2cccc(S(=O)(=O)[O-])c2c1.[Cu+2].[Na+].[Na+].[Na+] | C.I. Direct Blue 273 | 269 | eChemPortal |
| O=C1Nc2cccnc2N(C(=O)CCl)c2ccccc21 | – | 192 | eChemPortal |
| O=C(O)c1cccnc1N1CCCCC1 | 2-(Piperidin-1-yl)pyridine-3-carboxylic acid | 95 | OCHEM |
| Nc1ccc(/N=N/c2ccc(S(=O)(=O)Nc3ccc(/N=N/c4c(S(=O)(=O)[O-])cc5cc(S(=O)(=O)[O-])c(/N=N/c6ccccc6)c(O)c5c4N)cc3)cc2)c(N)c1.[Na+].[Na+] | C.I. Acid Black 234 | 190 | eChemPortal |
| C=CCn1c(-c2ccoc2C)n[nH]c1=S | 4-allyl-5-(2-methyl-3-furyl)-4H-1,2,4-triazole-3-thiol | 294 | OCHEM |
| COc1ccc(NC(=O)c2ccc(N)cc2)cc1 | 4-amino-N-(4-methoxyphenyl)benzamide | 188 | OCHEM |
| c1ccc(-c2noc(-c3cccs3)n2)cc1 | 3-Phenyl-5-(2-thienyl)-1,2,4-oxadiazole | 108.6 | eChemPortal |
| CC(=O)c1ccc(S(=O)(=O)N(C)C)cc1 | 4-Acetyl-N,N-dimethyl-benzenesulfonamide | 100 | OCHEM |
| CCCCCC(CN)CCC (stereo not given) | 2-Propylheptan-1-amine | -56 | eChemPortal |
| S=c1nc[nH]c2ccccc12 | 4-Quinazolinethiol | 294 | OCHEM |
| CC1(C)CC(N(C=O)CCCCCCN(C=O)C2CC(C)(C)NC(C)(C)C2)CC(C)(C)N1 | – | 157.3 | eChemPortal |
| CCCCCCCCCCCCOc1ccc(C=O)cc1 | p-Dodecyloxybenzaldehyde | 27.5 | OCHEM |
| NC(=O)NC1CC1 | N-cyclopropylurea | 115 | OCHEM |
| CCCCCCCCCCCCCCCC(=O)NCCC[N+](C)(C)C.[Cl-] | – | 80 | eChemPortal |
| Cn1c(=O)c2ccccc2n2cc3ccccc3c12 | 6-Methylisoindolo[2,1-a]quinazolin-5(6H)-one | 165 | OCHEM |
| Cc1cc(CC(=O)O)c(C)n1-c1ccc(Cl)cc1 | – | 119 | OCHEM |
| Cc1ccc(OC(C)C(=O)O)cc1 (stereo not given) | 2-(4-methylphenoxy)propanoic acid | 102 | OCHEM |
| S=c1nn[nH]n1-c1ccc(Cl)cc1 | 1-(4-Chlorophenyl)tetrazole-2-thione | 163 | OCHEM |
| O=C(NCc1ccccc1)c1cccc(O)c1 | N-Benzyl-3-hydroxy-benzamide | 141 | OCHEM |
| S=c1[nH]nc(-c2cccs2)n1-c1ccccc1 | – | 270 | OCHEM |
| N=C(NO)C1CCCC1 | N-Hydroxycyclopentanecarboximidamide | 75 | OCHEM |
| CCOC(=O)c1c(N)n(CCO)c2nc3ccccc3nc12 | – | 227 | OCHEM |
| O=C([O-])[O-].O=C([O-])[O-].OO.OO.OO.[Na+].[Na+].[Na+].[Na+] | – | 50 | PubChem |
| O=Cc1cc(Br)ccc1OCC(=O)O | 2-(4-bromo-2-formylphenoxy)acetic acid | 171 | OCHEM |
| CCOC(=O)c1c(N)oc(C)c1C(C)=O | ethyl 4-acetyl-2-amino-5-methyl-3-furoate | 136 | OCHEM |
| CCc1occc(=O)c1O | 2-Ethyl-3-hydroxy-4-pyrone | 88.45 | PubChem, eChemPortal |
| CC(C)(C)OC(=O)N[C@@H](C(=O)N1[C@@H]2C[C@@H]2C[C@@H]1C#N)C12CC3CC(CC(O)(C3)C1)C2 | – | 175.8 | eChemPortal |
| Cc1ccc(Nc2ccc3c4c(cc(=O)n3C)-c3ccccc3C(=O)c24)cc1 | – | 268.2 | eChemPortal |
| FC(F)(F)C(F)(F)C(F)(F)C(F)(F)C(F)(F)C(F)(F)C(F)(F)C(F)(F)C(F)(F)C(F)(F)CC1CO1 (stereo not given) | ((Perfluorodecyl)methyl)oxirane | 61.5 | ChemicalBook |
| O=C(O)c1cc(=O)c(O)c(C(=O)O)o1 | Meconic acid | 270 | PubChem |
| CNC(=O)c1cc(Oc2ccc(N)c(F)c2)ccn1 | 4-(4-Amino-3-fluorophenoxy)-N-methylpyridine-2-carboxamide | 138 | eChemPortal |
| COc1ccccc1CCNC(=O)CCl | Acetamide, 2-chloro-N-(o-methoxyphenethyl)- | 79 | OCHEM |
| NNC(=S)N1CCOCC1 | morpholine-4-carbothiohydrazide | 182 | OCHEM |
| CCCCC(CC)COC(=O)c1cc(C(=O)OCC(CC)CCCC)c(C(=O)OCC(CC)CCCC)cc1C(=O)OCC(CC)CCCC (stereo not given) | – | -34 | eChemPortal |
| CC(=O)N1CCC(N)CC1 | 1-acetylpiperidin-4-amine | 20 | OCHEM |
| CC(=O)OCC(=O)[C@@]1(O)CC[C@H]2[C@@H]3CCC4=CC(=O)C=C[C@]4(C)[C@@]34O[C@H]4C[C@@]21C | – | 183.5 | eChemPortal |
| CC(C)(C)NC(=O)c1ccccc1C(=O)O | 2-[(tert-butylamino)carbonyl]benzoic acid | 147 | OCHEM |
| Clc1cc(Cl)c(Oc2c(Cl)c(Cl)cc(Cl)c2Cl)cc1Cl | 2,2',3,4',5,5',6-Heptachlorodiphenyl ether | 118 | QSARDB |

A selection of 4 entries from above:

| compound | name | MP (°C) | via |
|---|---|---|---|
| O=C1Nc2cccnc2N(C(=O)CCl)c2ccccc21 | – | 192 | eChemPortal |
| O=C(O)c1cc(=O)c(O)c(C(=O)O)o1 | Meconic acid | 270 | PubChem |
| CC1(C)CC(N(C=O)CCCCCCN(C=O)C2CC(C)(C)NC(C)(C)C2)CC(C)(C)N1 | – | 157.3 | eChemPortal |
| Cc1sc(N)nc1-c1ccc(F)cc1 | 4-(4-Fluorophenyl)-5-methyl-1,3-thiazol-2-amine | 123 | OCHEM |